Measured values taken from patent US9440982B2 (Eolas Therapeutics, Inc., priority 2012, dated 2016).
pIC50: −log10 of the molar value.

By UniProt entry, the sequences of proteins in these tests, tags left out.
UniProt O43614, whole entry: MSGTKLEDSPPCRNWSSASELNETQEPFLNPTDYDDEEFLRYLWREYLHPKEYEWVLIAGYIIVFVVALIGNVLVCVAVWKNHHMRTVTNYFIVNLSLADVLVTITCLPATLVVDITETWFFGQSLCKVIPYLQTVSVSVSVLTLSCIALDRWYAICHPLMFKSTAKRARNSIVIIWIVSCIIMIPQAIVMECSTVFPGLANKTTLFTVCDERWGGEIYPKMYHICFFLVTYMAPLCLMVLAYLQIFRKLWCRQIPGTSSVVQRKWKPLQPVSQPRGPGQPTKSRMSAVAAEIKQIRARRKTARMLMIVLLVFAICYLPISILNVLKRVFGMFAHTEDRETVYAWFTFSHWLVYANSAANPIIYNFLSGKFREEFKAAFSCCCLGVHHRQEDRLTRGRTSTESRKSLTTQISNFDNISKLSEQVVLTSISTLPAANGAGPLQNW

Molecular target: T1, OX2 (Homo sapiens, UniProt O43614)
T1 construct: expressed in transfected cells; host or cells: CHO (CHO-OX2, kept under selection antibiotic)
Assay: Orexin receptor cell-based functional assay, [Ca2+]i by FLIPR, CHO-OX2 cells
Conditions: CHO-OX2 cells, [Ca2+]i by FLIPR, antagonist dose-range 0.1 nM-10 μM, EC90 of OXA; read-out: OX2

SMILES | pIC50
Cc1ccc(-c2cncs2)c(C(=O)N2CCC[C@@H](C)[C@H]2CNc2ccc(C(F)(F)F)cn2)c1 [Example A25, ((2S,3R)-3-Methyl-2-(((5-(trifluoromethyl)pyridin-2-yl)amino)methyl)piperidin-1-yl)(5-methyl-2-(thiazol-5-yl)phenyl)methanone] | < 5.40
Cc1ccc(-n2cnc(C)n2)c(C(=O)N2CCC[C@@H](C)[C@H]2CNc2ccc(C(F)(F)F)cn2)c1 [Example A17, ((2S,3R)-3-Methyl-2-(((5-(trifluoromethyl)pyridin-2-yl)amino)methyl)piperidin-1-yl)(5-methyl-2-(3-methyl-1H-1,2,4-triazol-1-yl)phenyl)methanone] | < 5.40
Cc1ccc(-n2nccn2)c(C(=O)N2CCC[C@@H](C)[C@H]2CNc2nc3cc(Cl)ccc3o2)c1 [Example A11, ((2S,3R)-2-(((5-Chlorobenzo[d]oxazol-2-yl)amino)methyl)-3-methylpiperidin-1-yl)(5-methyl-2-(2H-1,2,3-triazol-2-yl)phenyl)methanone] | 7.35
Cc1ccc(-n2ncnc2C)c(C(=O)N2CCC[C@@H](C)[C@H]2CNc2ccc(C(F)(F)F)cn2)c1 [Example A16, ((2S,3R)-3-Methyl-2-(((5-(trifluoromethyl)pyridin-2-yl)amino)methyl)piperidin-1-yl)(5-methyl-2-(5-methyl-1H-1,2,4-triazol-1-yl)phenyl)methanone] | < 5.30

Next, values leading:

pIC50 | SMILES
< 5.30 | Cc1ccc(-n2cnc(C)n2)c(C(=O)N2CCC[C@@H](C)[C@H]2CNc2nc3cc(Cl)ccc3o2)c1 [Example A29, ((2S,3R)-2-(((5-Chlorobenzo[d]oxazol-2-yl)amino)methyl)-3-methylpiperidin-1-yl)(5-methyl-2-(3-methyl-1H-1,2,4-triazol-1-yl)phenyl)methanone]
6.60 | Cc1ccc(-n2ncc(C)n2)c(C(=O)N2CCC[C@@H](C)[C@H]2CNc2ccc(C(F)(F)F)cn2)c1 [Example A112, ((2S,3R)-3-Methyl-2-(((5-(trifluoromethyl)pyridin-2-yl)amino)methyl)piperidin-1-yl)(5-methyl-2-(4-methyl-2H-1,2,3-triazol-2-yl)phenyl)methanone]
< 5.30 | C[C@@H]1CCCN(C(=O)c2cc(Cl)ccc2-n2nccn2)[C@@H]1CNc1ccc(Cl)cn1 [Example A161]
5.60 | Cc1ccc(-n2nccn2)c(C(=O)N2CCC[C@@H](C)[C@H]2CNc2ncc3cc(C)ccc3n2)c1 [Example A220, ((2S,3R)-3-Methyl-2-(((6-methylquinazolin-2-yl)amino)methyl)piperidin-1-yl)(5-methyl-2-(2H-1,2,3-triazol-2-yl)phenyl)methanone]
< 5.30 | Cc1ccc(-n2nccn2)c(C(=O)N2CCC[C@@H](C)[C@H]2CNc2ncc(C(F)(F)F)cn2)c1 [Example A149, ((2S,3R)-3-Methyl-2-(((5-(trifluoromethyl)pyrimidin-2-yl)amino)methyl)piperidin-1-yl)(5-methyl-2-(2H-1,2,3-triazol-2-yl)phenyl)methanone]
< 5.30 | C[C@@H]1CCCN(C(=O)c2cccc(F)c2-c2ncccn2)[C@@H]1CNc1ncc(Cl)cn1 [Example A231, (3-Fluoro-2-(pyrimidin-2-yl)phenyl)((2S,3R)-3-methyl-2-(((5-chloropyrimidin-2-yl)amino)methyl)piperidin-1-yl)methanone]
< 5.30 | Cc1ccc(-n2nccn2)c(C(=O)N2CCC[C@@H](C)[C@H]2CNc2ccc(C(F)(F)F)cn2)n1 [Example A174, ((2S,3R)-3-Methyl-2-(((5-(trifluoromethyl)pyridin-2-yl)amino)methyl)piperidin-1-yl)(6-methyl-3-(2H-1,2,3-triazol-2-yl)pyridin-2-yl)methanone]
5.63 | Cc1cccc(C(=O)N2CCC[C@@H](C)[C@H]2CNc2ncc(C(F)(F)F)cn2)c1-c1ncccn1 [Example A299, ((2S,3R)-3-Methyl-2-(((5-(trifluoromethyl)pyrimidin-2-yl)amino)methyl)piperidin-1-yl)(3-methyl-2-(pyrimidin-2-yl)phenyl)methanone]
< 5.30 | Cc1ccc(-c2cccnc2)c(C(=O)N2CCC[C@@H](C)[C@H]2CNc2ccc(Cl)cn2)n1 [Example A224]
< 5.30 | Cc1ccc(-n2ccc(C)n2)c(C(=O)N2CCC[C@@H](C)[C@H]2CNc2nnc(C(F)(F)F)s2)c1 [Example A132, ((2S,3R)-3-Methyl-2-(((5-(trifluoromethyl)-1,3,4-thiadiazol-2-yl)amino)methyl)piperidin-1-yl)(5-methyl-2-(3-methyl-1H-pyrazol-1-yl)phenyl)methanone]
< 5.30 | C[C@@H]1CCCN(C(=O)c2cccc(F)c2-n2nccn2)[C@@H]1CNc1ncc(C(F)(F)F)cn1 [Example A256, (3-Fluoro-2-(2H-1,2,3-triazol-2-yl)phenyl)((2S,3R)-3-methyl-2-(((5-(trifluoromethyl)pyrimidin-2-yl)amino)methyl)piperidin-1-yl)methanone]
< 5.30 | Cc1ccc(-c2ncccn2)c(C(=O)N2CCC[C@@H](C)[C@H]2CNc2ccc(C(F)(F)F)nn2)c1 [Example A137, ((2S,3R)-3-Methyl-2-(((6-(trifluoromethyl)pyridazin-3-yl)amino)methyl)piperidin-1-yl)(5-methyl-2-(pyrimidin-2-yl)phenyl)methanone]
< 5.30 | Cc1ccc(-n2nccn2)c(C(=O)N2CCC(F)(F)C[C@H]2CNc2ncc(C(F)(F)F)cn2)c1 [Example A211, (S)-(4,4-Difluoro-2-(((5-(trifluoromethyl)pyrimidin-2-yl)amino)methyl)piperidin-1-yl)(5-methyl-2-(2H-1,2,3-triazol-2-yl)phenyl)methanone]
< 5.30 | Cc1ccc(-c2ncccn2)c(C(=O)N2CCC[C@@H](C)[C@H]2CNc2ccc(C#N)cn2)c1 [Example A139, 6-((((2S,3R)-3-Methyl-1-(5-methyl-2-(pyrimidin-2-yl)benzoyl)piperidin-2-yl)methyl)amino)nicotinonitrile]
< 5.30 | Cc1ccc(-n2nccn2)c(C(=O)N2CCC[C@@H](C)[C@H]2CNc2ncccc2C#N)c1 [Example A90, 2-((((2S,3R)-3-Methyl-1-(5-methyl-2-(2H-1,2,3-triazol-2-yl)benzoyl)piperidin-2-yl)methyl)amino)nicotinonitrile]
< 5.40 | COc1cccc(NC[C@@H]2[C@H](C)CCCN2C(=O)c2cc(C)ccc2-n2nccn2)n1 [Example A80, ((2S,3R)-2-(((6-Methoxypyridin-2-yl)amino)methyl)-3-methylpiperidin-1-yl)(5-methyl-2-(2H-1,2,3-triazol-2-yl)phenyl)methanone]
5.77 | Cc1cccc(C(=O)N2CCC[C@@H](C)[C@H]2CNc2ncc(Cl)cn2)c1-n1nccn1 [Example A268, ((2S,3R)-2-(((5-Chloropyrimidin-2-yl)amino)methyl)-3-methylpiperidin-1-yl)(3-methyl-2-(2H-1,2,3-triazol-2-yl)phenyl)methanone]
< 5.30 | C[C@@H]1CCCN(C(=O)c2cc(Cl)ccc2-c2ncccn2)[C@@H]1CNc1ncc(Cl)cn1 [Example A202, (5-Chloro-2-(pyrimidin-2-yl)phenyl)((2S,3R)-2-(((5-chloropyrimidin-2-yl)amino)methyl)-3-methylpiperidin-1-yl)methanone]

Same assay, conditions: Table 2; CHO-OX2 cells, EC90 of OXA; read-out: IC50 Bioactivity OX2

pIC50 | SMILES
7.15 | Cc1nc(C(=O)N2CCC[C@@H](C)[C@H]2CNc2cccc(C(F)(F)F)n2)c(-c2ccc(F)cc2)s1 (racemic) [Example 87, rac-cis-(3-Methyl-2-(((6-(trifluoromethyl)pyridin-2-yl)amino)methyl)piperidin-1-yl) (5-(4-fluorophenyl)-2-methylthiazol-4-yl)methanone]
7.40 | O=C(NC[C@@H]1C[C@H](F)CN1C(=O)c1ccccc1-c1ccccc1)c1cccc2cccnc12 [Example 5, N-(((2S,4S)-1-(Biphenylcarbonyl)-4-fluoropyrrolidin-2-yl)methyl)quinoline-8-carboxamide]
7.12 | Cc1nc(C(=O)N2CC(O)CCC2CNC(=O)c2cccc3cccnc23)c(-c2cccc(F)c2)s1 (racemic) [Example 51, N-((1-(5-(3-Fluorophenyl)-2-methylthiazole-4-carbonyl)-5-hydroxypiperidin-2-yl)methyl)quinoline-8-carboxamide]
5.85 | Cc1nc(C(=O)N2CCC[C@H](C)[C@H]2CNc2ncc(Cl)cn2)c(-c2ccc(F)cc2)s1 (racemic) [Example 96, rac-trans-(2-(((5-Chloropyrimidin-2-yl)amino)methyl)-3-methylpiperidin-1-yl)(5-(4-fluorophenyl)-2-methylthiazol-4-yl)methanone]
< 5.00 | Cc1nc(C(=O)N2CCC[C@@H](C)[C@H]2CNc2ncc(Cl)cn2)c(-c2ccc(F)cc2)s1 (racemic) [Example 82, rac-cis-(2-(((5-Chloropyrimidin-2-yl)amino)methyl)-3-methylpiperidin-1-yl)(5-(4-fluorophenyl)-2-methylthiazol-4-yl)methanone]
6.15 | O=C1C[C@@H](CNC(=O)c2cccc3cccnc23)N(C(=O)c2ccccc2-c2ccccc2)C1 [Example 6, (S)—N-((1-(Biphenylcarbonyl)-4-oxopyrrolidin-2-yl)methyl)quinoline-8-carboxamide]
< 5.00 | CCc1cnc(NC[C@@H]2[C@H](CC)CCCN2C(=O)c2nc(C)sc2-c2ccc(F)cc2)nc1 (racemic) [Example 78, rac-cis-(3-Ethyl-2-(((5-ethylpyrimidin-2-yl)amino)methyl)piperidin-1-yl)(5-(4-fluorophenyl)-2-methylthiazol-4-yl)methanone]
8.10 | Cc1nc(C(=O)N2CC(F)CCC2CNC(=O)c2cccc3cccnc23)c(-c2ccccc2)s1 (racemic) [Example 1, N-((5-Fluoro-1-(2-methyl-5-phenylthiazole-4-carbonyl)piperidin-2-yl)methyl)quinoline-8-carboxamide]
< 5.00 | Cc1nc(C(=O)N2CCC[C@@H](C(C)C)[C@H]2CNc2nc3ccccc3o2)c(-c2ccc(F)cc2)s1 (racemic) [Example 84, rac-cis-((2S,3S)-2-((Benzo[d]oxazol-2-ylamino)methyl)-3-isopropylpiperidin-1-yl)(5-(4-fluorophenyl)-2-methylthiazol-4-yl)methanone]
